Test results reported in patent US7700602B2, “Amino-5,5-diphenylimidazolone derivatives for the inhibition of β-secretase” (Wyeth LLC, priority 2004, dated 2010).

Target: T1, human BACE2 (Homo sapiens, UniProt Q9Y5Z0)
T1 sequence (Q9Y5Z0 63-518): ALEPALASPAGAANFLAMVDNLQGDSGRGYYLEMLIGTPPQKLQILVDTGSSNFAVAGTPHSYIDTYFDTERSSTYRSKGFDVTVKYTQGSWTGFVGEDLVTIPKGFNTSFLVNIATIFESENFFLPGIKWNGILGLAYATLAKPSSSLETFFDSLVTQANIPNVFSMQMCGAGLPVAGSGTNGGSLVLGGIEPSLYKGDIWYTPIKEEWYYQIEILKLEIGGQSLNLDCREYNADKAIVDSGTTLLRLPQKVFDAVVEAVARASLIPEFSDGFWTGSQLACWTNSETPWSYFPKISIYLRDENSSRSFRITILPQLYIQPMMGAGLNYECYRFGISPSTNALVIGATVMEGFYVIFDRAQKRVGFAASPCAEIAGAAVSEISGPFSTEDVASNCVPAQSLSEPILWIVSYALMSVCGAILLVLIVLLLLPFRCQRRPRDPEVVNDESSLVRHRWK
Test: Fluorescent Kinetic Assay for Human Recombinant BACE 2 (selectivity BACE1/BACE2);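 note: cleavage rate from the linear slope of fluorescence (excitation 320 nm, emission 420 nm) recorded every 40 s over 30 min at room temperature, sodium acetate buffer with 0.05% CHAPS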
Assay type: biochemical
Conditions: selectivity BACE1 over BACE2; 1.5 nM human BACE2, 25 μM substrate, pH 4.5

With `Cc1cc(C2(c3cccc(-c4cncnc4)c3)N=C(N)N(C)C2=O)ccc1O[C@H](C)c1ccccc1` (stereo partly drawn) [Example 131, 2-amino-3-methyl-5-{3-methyl-4-[(1R)-1-phenylethoxy]phenyl}-5-(3-pyrimidin-5-ylphenyl)-3,5-dihydro-4H-imidazol-4-one] the BACE1/BACE2 selectivity was “II (II = 10-100-fold selectivity)”.
